Results on 2 molecules are retold here after patent US11579152B2, “Engineered hERG channel proteins, vesicles and methods of identifying small molecule pharmacological agents” (priority 2016, dated 2023).

Protein sequences, listed by entry. Tags and fused reporters are not part of them. Chains listed by the source or under a name are the forms on record and can include a tag or linker.
UniProt Q12809, with tags, fused parts or gaps DEL141-380/DEL871-1005: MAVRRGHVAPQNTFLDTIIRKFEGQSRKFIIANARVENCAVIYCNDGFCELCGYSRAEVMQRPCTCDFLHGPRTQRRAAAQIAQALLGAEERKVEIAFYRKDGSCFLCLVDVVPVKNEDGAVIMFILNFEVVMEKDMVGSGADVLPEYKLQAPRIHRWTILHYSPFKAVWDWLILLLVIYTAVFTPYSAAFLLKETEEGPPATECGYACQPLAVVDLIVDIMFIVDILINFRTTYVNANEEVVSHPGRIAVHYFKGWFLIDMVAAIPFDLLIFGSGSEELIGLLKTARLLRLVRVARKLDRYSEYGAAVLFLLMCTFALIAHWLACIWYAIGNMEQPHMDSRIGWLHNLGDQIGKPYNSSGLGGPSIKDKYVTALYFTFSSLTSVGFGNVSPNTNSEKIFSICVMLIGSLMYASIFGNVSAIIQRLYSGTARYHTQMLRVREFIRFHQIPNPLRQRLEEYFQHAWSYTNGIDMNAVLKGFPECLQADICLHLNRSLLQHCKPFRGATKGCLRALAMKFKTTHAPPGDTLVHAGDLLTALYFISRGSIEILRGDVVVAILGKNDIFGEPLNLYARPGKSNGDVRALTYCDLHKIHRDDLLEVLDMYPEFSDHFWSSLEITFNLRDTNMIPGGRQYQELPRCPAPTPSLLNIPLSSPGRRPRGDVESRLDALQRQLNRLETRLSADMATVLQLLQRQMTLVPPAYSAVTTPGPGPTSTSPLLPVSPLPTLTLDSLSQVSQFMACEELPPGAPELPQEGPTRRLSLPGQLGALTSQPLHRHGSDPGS

Read-outs that look alike come from different tables or passages of the source.

The target of one test is hERG channel (Homo sapiens, UniProt Q12809, DEL141-380/DEL871-1005). The experiment in a line: biochemical.
For a further test, the target named is hERG (Homo sapiens, UniProt Q12809). To be noted: cited from earlier work.

Regarding `Fc1ccc(C(OCCN2CCN(CCCc3ccccc3)CC2)c2ccc(F)cc2)cc1` [GBR-12909], the IC50 on hERG channel is 233 ± 22 nM; on hERG (read-out: IC50 patch, electrophysiology-determined values reported in the literature), 7 nM.

With `O=C1Cc2cc(CCN3CCN(c4nsc5ccccc45)CC3)c(Cl)cc2N1` [Ziprasidone], the figures for the IC50 against hERG channel and on hERG were 4060 ± 475 nM and 120 to 240 nM, respectively.
